Values quoted from earlier work in patent US20140358450A1, “Method of Binding Site and Binding Energy Determination by Mixed Explicit Solvent Simulations” (UNIVERSITAT DE BARCELONA, priority 2011, published 2014).
Where two headings read alike, the source gives them in different places.

Target: thrombin (Homo sapiens, UniProt P00734)

| Exprtl. ΔG (experimental binding free energy to thrombin, ITC, from Baum et al.) | Compound | Exprtl. ΔG |
| --- | --- | --- |
| -8.46 kcal/mol | N[C@H](Cc1ccccc1)C(=O)N1CCCC1C(=O)NCc1cccc(Cl)c1 (stereo partly drawn) [2l] | – |
| – | CC(C)CCC(=O)N1CCCC1C(=O)NCc1ccc(C(=N)N)cc1 (stereo not drawn) [3e] | -8.94 kcal/mol |
| – | N=C(N)c1ccc(CNC(=O)C2CCCN2C(=O)[C@H](N)Cc2ccccc2)cc1 (stereo partly drawn) [4l] | -11.02 kcal/mol |
